Rows were chosen to be rich in hits. Some 0.92% of all compounds tested hit in one or more screens of this group.
Luc counter = counter-screen: inhibitors of Kinase-Glo firefly luciferase | Q27757 | Kinase-Glo luciferase, ATP luminescence, 8 min | Potency, µM (doses to about 38.3 µM), most hits filed as inhibitors | hit rate 0.28% among 200,000 | AID 1379; note: nearly all actives have a fitted effect of over 60% in size
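Recombinant Kinase-Glo luciferase, 10 uM ATP (linear range), luciferin; imidazole pH 7.2 / KCl / MgCl2 / Tween / BSA buffer; 8 min RT; luminescence.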
RXFP1 agonist = RXFP1 (human) receptor agonism; hit rate 0.3% among 370,000; Potency, µM (top dose mostly 57.5 µM), actives largely listed as activators; HEK293T-RXFP1 cAMP TR-FRET, 30 min; response scale: percent of porcine relaxin response, buffer zero; Q9HBX9; note: nearly all actives have a fitted effect of over 60% in size
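cAMP rise read by TR-FRET after 30 min, 37C compound exposure (up to 58 uM) in RXFP1-transfected HEK293 cells with Ro 20174 present. EC50 from Hill-equation fits, with 29 nM porcine relaxin as 100% and buffer as basal.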
GALK inh = blocks human galactokinase activity | Purified GALK, Kinase-Glo residual ATP luminescence | Potency, µM (doses to about 57.5 µM), usual class: inhibitors | hit rate 0.007% among 270,000
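GALK at 5 nM final was combined with compound, 35 uM ATP and 100 uM galactose in HEPES pH8.0 with MgCl2 and DTT. The reaction ran one hour at room temperature before luminescent ATP detection.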
RXFP1 antagonist = blocks the human relaxin receptor RXFP1 | HEK293-RXFP1, relaxin-stimulated cAMP HTRF, 30 min; stronger effect = lower value | Q9HBX9 | activity change, negative = inhibition, % at 57.5 µM | AID 1259400 | hit rate 0.59% among 350,000;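 active = activity change of -60% or lower, but not beyond a set lower limit; inconclusive = change between -60% and -40%, or beyond the set limit; inactive = change above -40%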
miR-21 reporter = raises the signal of a miR-21 reporter; Potency, µM (doses to about 38.3 µM); HeLa miR-21 FLuc reporter, luciferase, 48 h; AID 2288; 340,000 tested, under 10 active; active = well fitted rising curve with a large enough effect; inconclusive = small, poorly fitted or top-dose-only effect; inactive = no such curve, though single readings can be large or run the other way;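 further: miR-21 action dims this reporter so a rising signal means less miR-21 action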
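Compounds were titrated across several concentrations (up to approximately 40 uM) and incubated 48 hours with HeLa miR-21-FLuc reporter cells (miR-21 target sequence downstream of FLuc, endogenous miR-21). Readout was firefly luciferase luminescence after lytic detection reagent.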
PKM2 act = increases activity of human pyruvate kinase M2 | P14618 | purified PKM2, Kinase-Glo ATP luminescence, activation; response scale: 0% is enzyme alone, no compound | Potency, µM (highest dose often 57.5 µM), usual class: activators | hit rate 0.34% among 260,000 | AID 1631; note: nearly all actives have a fitted effect of over 55% in size
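Purified hPK-M2 (>95% pure) converted ADP (0.1 mM final) to ATP with 0.5 mM PEP in 50 mM imidazole pH7.2, KCl, MgCl2, Tween 20, BSA; 1 h at room temperature. ATP detected by Kinase-Glo luminescence.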
Hits are given with their value; 0 = inactive; ? = inconclusive; - = no result; ! = not active in a repeat; [ ] = another dose, or the depositor's remark. Unless noted, calls come from the whole dose curve; as a rule, active = well fitted curve in the direction sought with a large enough effect; inconclusive = small, poorly fitted or top-dose-only effect, or another doubt; inactive = no such curve, though single readings can be large; an effect the other way counts as inactive or inconclusive.

SMILES	Luc counter	RXFP1 agonist	GALK inh	RXFP1 antagonist	miR-21 reporter	PKM2 act
O=C(CCc1ccccc1)N1CCN(S(=O)(=O)c2cccs2)CC1	-	0	0	0	0	3.55µM
COc1ccccc1C1(O)CCN(CC(=O)Nc2nc(-c3ccccc3)cs2)CC1	0	0	0	-76.4	?	0
CC(=O)c1cccc(NC(=O)Nc2ccc3c(c2)N(C)C(=O)CS3)c1	0	0	0	-72.4	0	0
CN1CCC[C@@H]1c1cccnc1.O=C(O)c1ccccc1O.O=C([OH2+])c1ccccc1O.O=C([OH2+])c1ccccc1O.O=C([OH2+])c1ccccc1O.[Cu]	0[7.66 µM]	-	-	-	-	-
C=Cc1ccc(CN2C(=O)N(c3ccc(CC)cc3)S(=O)(=O)c3ccccc32)cc1	-	0	-	-	0	-
c1c2c(cc3sc(N4CCOCC4)nc13)OCO2	11.2µM	0	0	0	0	0
c1c2c(cc3sc(N4CCCCC4)nc13)OCO2	12.6µM	0	0	0	0	0
c1ccc(N2CCN(c3nc4cc5c(cc4s3)OCO5)CC2)cc1	0	0	0	0	0	0
CCCn1c(C)nc2c(N3CCC(N4CCN(C)CC4)CC3)nc(C)nc21	0	-	-	-	-	0
c1ccc2nc(-c3nc4ccccc4o3)ccc2c1	1µM	0	0	0	0	0
COc1cccc([C@@H]2Oc3ccc(Br)cc3C(=O)[C@H]2OC(=O)Nc2ccc(OC(F)F)cc2)c1	0	-	-	-	-	-
CCC1CN(C(=O)N2CCC(C(=O)NCCc3ccccc3C)CC2)c2ccccc2O1 (stereo not drawn)	-	0	-	0	?	-
CCc1ccc(CNC(=O)C2CCN(C(=O)N3CC(CC)Oc4ccc(C)cc43)CC2)cc1 (stereo not drawn)	-	0	-	-68.0	0	-
CCC1CN(C(=O)N2CCC(C(=O)NCCc3ccccc3Cl)CC2)c2cc(C)ccc2O1 (stereo not drawn)	-	0	-	-87.5	0	-
COc1cccc(CNC(=O)C2CCCN(c3nn4cc(-c5ccc(C)cc5)nc4s3)C2)c1 (stereo not drawn)	-	0	-	0	0	-
CC(C)OC(=O)c1cc(C(=O)OC(C)C)cc([N+](=O)[O-])c1	-	-	-	-70.9	-	-
CC(C)OC(=O)c1cc(NC(=S)Nc2ccc([N+](=O)[O-])cc2)cc(C(=O)OC(C)C)c1	0	0	0	0	0	0
COc1cc2cc(C)c(SCC(=O)N3CCN(C(=O)c4ccco4)CC3)nc2cc1OC	-	0	0	0	0	17.8µM
CCc1cc2cc(C)ccc2nc1SCC(=O)N1CCN(C(=O)c2ccco2)CC1	0	0	0	0	0	0
CC(C)n1c(SCC(=O)N2CCN(C(=O)c3ccco3)CC2)nc2c1c(=O)n(C)c(=O)n2C	-	14.1µM	0	0	0	0
CCCCn1c(SCC(=O)Nc2cc(C)on2)nc2c1c(=O)n(C)c(=O)n2C	0	0	0	0	0	20µM
CCC(=O)Nc1ccc(NC(=O)CSc2nc3c(c(=O)n(C)c(=O)n3C)n2CC)cc1	-	15.8µM	0	0	0	-
C=CCOC(=O)N[C@@H](c1ccccc1)[C@@H](C)[N+](=O)[O-]	0	-	-	-	-	-
CCCCCCCC1=Cc2ccccc2C(C(C(C)=O)C(=O)OC)N1C(=O)OC (stereo not drawn)	0[7.66 µM]	-	-	-	-	0[11.5 µM]
COC(=O)c1cc(S(N)(=O)=O)ccc1OC	-	-	-	0	-	-
SMILES	Luc counter	RXFP1 agonist	GALK inh	RXFP1 antagonist	miR-21 reporter	PKM2 act
Cc1cc(NC(=O)CSc2nc3c(c(=O)n(C)c(=O)n3C)n2C(C)C)no1	0	0	0	0	0	28.2µM
CCCCOc1cccc(C2/C(=C(\O)c3ccc4c(c3)OCCO4)C(=O)C(=O)N2CCN2CCOCC2)c1 (stereo not drawn)	-	25.1µM	0	0	0	-
CCCOc1cccc(C2/C(=C(\O)c3ccc4c(c3)OCCO4)C(=O)C(=O)N2CCCn2ccnc2)c1 (stereo not drawn)	-	?	0	0	0	-
CCOC(=O)c1ccc(NC(=O)C(CC)Sc2nncn3c2cc2oc(C)cc23)cc1 (stereo not drawn)	-	0	-	-79.5	0	-
CCC(Sc1nncn2c1cc1oc(C)cc12)C(=O)Nc1ccc(F)cc1 (stereo not drawn)	-	0	-	0	0	-
CCN(C(=O)COC(=O)CCc1ccccc1)c1ccccc1	-	0	0	0	0	0
CCCCNC(=O)CSc1nc2cc3c(cc2c(=O)n1CCCC(=O)NCCc1ccc(OC)c(OC)c1)OCO3	0	0	0	-75.9!	0	0
CCC(Sc1nc2cc3c(cc2c(=O)n1CCCC(=O)NCc1ccc(OC)cc1)OCO3)C(=O)NCCCOC (stereo not drawn)	-	0	-	-77.2	0	-
COCCCNC(=O)CSc1nc2cc3c(cc2c(=O)n1CCCCCC(=O)NCc1ccc(OC)cc1)OCO3	-	0	-	0	0	-
O=C(Nc1cccc2c1CCCC2)c1ccc(Cl)c([N+](=O)[O-])c1	0	0	0	-70.3	0	0
O=C(Nc1cccc2c1CCCC2)c1cc([N+](=O)[O-])ccc1Cl	0	0	0	0	?	0
O=C1CCC[C@@H]2CC(NCc3ccc(Cl)c(Cl)c3)C[C@@H]3CCN1[C@H]23 (stereo partly drawn)	0	-	-	-	-	-
CSc1ccccc1NC(=O)C(=O)c1c[nH]c2ccccc12	0	0	0	-60.0	0	0
O=C(NCCCCc1ccccc1)C1CC(c2ccc(C(F)(F)F)cc2)=NO1 (stereo not drawn)	-	0	0	-	0	0
O=C(CCS(=O)(=O)c1nc(-c2cccs2)cc(C(F)(F)F)n1)Nc1ccc(F)c(Cl)c1	-	0	-	-60.2	?	-
COc1ccc(NC(=O)CCS(=O)(=O)c2nc(-c3cccs3)cc(C(F)(F)F)n2)cc1	-	0	-	?	?	-
COc1ccccc1CN1COc2ccc3c(oc(=O)c4ccccc43)c2C1	-	17.8µM	-	0	0	-
N#Cc1ccc(CN2CC3(CCN(C(=O)c4ccco4)CC3)C2)cc1	0	-	-	-	-	-
O=C(O)c1ccc2nc(-c3cc4cc(Cl)ccc4oc3=O)[nH]c2c1	-	0	-	0	0	-
CN(C)CCOC(=O)c1ccc(N)cc1	0[7.66 µM]	-	-	-	-	-
N/C(=N\N=C\c1ccc(O)cc1)c1nonc1N	?	0	0	0	0	0
N/C(=N\N=C\c1cccc(O)c1)c1nonc1N	12.6µM	0	0	0	0	0
O=C(COc1ccc(S(=O)(=O)N2CCc3ccccc32)cc1Cl)NCc1ccccn1	0	0	0	0	0	15.8µM
CCCC(C(=O)O)n1c(O)c(C=C2N=c3ccccc3=N2)sc1=S (stereo not drawn)	-	0	0	-60.6	0	0
CN1CCCC(CC2Oc3ccccc3Sc3ccccc32)C1 (stereo not drawn)	0	0	0	-81.4	0	0
Cc1c(-c2ccccc2)c(-c2ccc(OCCN(C)C)cc2)n2ccccc12	-	-	-	0	-	-
